This assay has as its target T1, Trehalase (Rattus norvegicus, UniProt O70282).
T1 sequence (O70282 whole entry): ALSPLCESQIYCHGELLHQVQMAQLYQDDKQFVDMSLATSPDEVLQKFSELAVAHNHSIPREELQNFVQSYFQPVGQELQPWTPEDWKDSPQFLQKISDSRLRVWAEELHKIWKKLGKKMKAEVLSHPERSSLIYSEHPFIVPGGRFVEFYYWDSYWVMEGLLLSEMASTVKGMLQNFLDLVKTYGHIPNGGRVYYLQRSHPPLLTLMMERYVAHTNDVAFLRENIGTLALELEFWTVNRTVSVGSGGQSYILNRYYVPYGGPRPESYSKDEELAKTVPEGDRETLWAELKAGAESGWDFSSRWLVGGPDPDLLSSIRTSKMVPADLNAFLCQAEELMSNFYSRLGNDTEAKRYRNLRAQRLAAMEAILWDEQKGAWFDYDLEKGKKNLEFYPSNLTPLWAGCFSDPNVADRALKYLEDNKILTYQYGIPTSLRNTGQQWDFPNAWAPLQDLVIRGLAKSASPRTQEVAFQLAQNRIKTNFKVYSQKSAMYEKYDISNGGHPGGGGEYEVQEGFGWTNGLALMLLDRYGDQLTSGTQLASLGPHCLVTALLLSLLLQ
Nature of the assay: Inhibition of Glycosidases (trehalase)in rat intestinal brush border membranes by D-glucose oxidase-peroxidase method. The class given is cell membranes, Membrane.

By IC50 is commonly meant the midpoint of a concentration-inhibition curve. A high value points to weaker potency. In turn, `CCCCN1[C@H](CO)[C@@H](O)[C@H](O)[C@H]1CO` gave an IC50 of less than 50 µM.

For the compound `CN1[C@H](CO)[C@@H](O)[C@H](O)[C@H]1CO`, the 50% inhibitory concentration (IC50) was less than 50 µM.

The values above are taken from ChEMBL document CHEMBL1128713, “N-alkylated nitrogen-in-the-ring sugars: conformational basis of inhibition of glycosidases and HIV-1 replication” (J Med Chem, 1995).
